Experimental data reported in patent US20170157251A1, “Bi-Specific Monovalent Diabodies That are Capable of Binding CD19 and CD3, and Uses Thereof” (MacroGenics, Inc., priority 2015, published 2017).

Biological target: T1, soluble human CD3ε/δ heterodimer and soluble human CD19-biotin (Homo sapiens, UniProt P07766+P15391)
T1 construct: coated with soluble human CD3ε/δ heterodimer; followed by addition of soluble human CD19-biotin
Test: Bifunctional ELISA, simultaneous engagement of both target antigens
Assay type: binding
Text: The plates were washed and the immune complex was detected with chemoluminescent substrate conjugated to streptavidin.

**Q.** “Control DART 1: control DART capable of binding to fluorescein and CD3 [reference compound]” was tested. Which “simultaneous binding to both CD19 and CD3” value did it give?
**A.** Neither Control DART 1 (▪) nor Control DART 2 (▴) were capable of binding to both targets simultaneously
